Measured values: US7683097B2, “Topoisomerase inhibitors” (Propharmacon Inc., priority 2004, dated 2010)

Sequences of proteins named here, by UniProt entry; tags and fusion partners are left off. A change or cut given only in a name is not applied to a line headed by its entry.
UniProt P11388: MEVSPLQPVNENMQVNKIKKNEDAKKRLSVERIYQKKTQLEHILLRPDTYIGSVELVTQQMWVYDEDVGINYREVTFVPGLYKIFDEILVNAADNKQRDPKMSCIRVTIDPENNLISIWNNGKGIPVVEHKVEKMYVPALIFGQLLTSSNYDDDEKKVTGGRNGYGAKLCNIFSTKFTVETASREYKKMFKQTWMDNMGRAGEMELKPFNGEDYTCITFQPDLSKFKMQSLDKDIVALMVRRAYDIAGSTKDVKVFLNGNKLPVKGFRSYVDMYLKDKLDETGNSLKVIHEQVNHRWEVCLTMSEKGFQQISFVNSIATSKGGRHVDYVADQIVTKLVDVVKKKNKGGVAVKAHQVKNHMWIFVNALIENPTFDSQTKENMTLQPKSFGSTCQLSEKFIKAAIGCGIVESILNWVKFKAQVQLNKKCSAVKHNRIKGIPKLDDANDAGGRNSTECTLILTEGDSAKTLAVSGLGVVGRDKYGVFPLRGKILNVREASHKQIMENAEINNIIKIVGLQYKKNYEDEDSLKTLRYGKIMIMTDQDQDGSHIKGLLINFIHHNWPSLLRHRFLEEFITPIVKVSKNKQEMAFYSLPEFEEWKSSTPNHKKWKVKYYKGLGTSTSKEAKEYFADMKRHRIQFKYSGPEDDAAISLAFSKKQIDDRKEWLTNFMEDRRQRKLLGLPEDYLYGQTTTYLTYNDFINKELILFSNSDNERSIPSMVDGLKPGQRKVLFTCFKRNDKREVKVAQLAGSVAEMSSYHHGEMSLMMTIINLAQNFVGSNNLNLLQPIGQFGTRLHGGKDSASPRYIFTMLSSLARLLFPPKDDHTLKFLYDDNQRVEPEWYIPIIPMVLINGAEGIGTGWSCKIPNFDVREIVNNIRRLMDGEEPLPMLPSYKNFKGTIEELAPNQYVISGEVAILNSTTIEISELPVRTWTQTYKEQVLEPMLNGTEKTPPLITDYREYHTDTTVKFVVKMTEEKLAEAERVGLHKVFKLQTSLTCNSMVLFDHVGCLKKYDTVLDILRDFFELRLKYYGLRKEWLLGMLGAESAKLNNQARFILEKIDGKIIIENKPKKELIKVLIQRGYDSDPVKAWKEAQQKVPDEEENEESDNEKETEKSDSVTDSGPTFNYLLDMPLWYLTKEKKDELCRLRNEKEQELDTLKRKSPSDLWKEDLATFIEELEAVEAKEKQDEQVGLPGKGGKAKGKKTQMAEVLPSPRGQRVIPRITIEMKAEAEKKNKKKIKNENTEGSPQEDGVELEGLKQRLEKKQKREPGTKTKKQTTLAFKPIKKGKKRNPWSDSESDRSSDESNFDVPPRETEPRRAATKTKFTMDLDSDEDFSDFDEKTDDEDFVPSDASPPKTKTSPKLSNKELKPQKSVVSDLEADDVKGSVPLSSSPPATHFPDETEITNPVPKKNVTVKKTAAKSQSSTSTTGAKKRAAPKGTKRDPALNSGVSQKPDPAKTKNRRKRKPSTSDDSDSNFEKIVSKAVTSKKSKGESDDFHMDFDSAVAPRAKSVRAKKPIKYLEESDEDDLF

Columns and labels:
[1] = molecular target: T1, human Topo IIα (Homo sapiens, UniProt P11388); test: Topo IIα decatenation inhibition assay (kDNA, agarose gel); format: biochemical; details: sample gel, FIG. 2; kDNA substrate
T1 construct: purchased Topogen Inc. Columbus, Ohio

[2] = system: MCF-7/ADR; test: Cell proliferation assay, MDR line MCF-7/ADR; format: cell-based, human; details: 48 hrs exposure; less potent in MCF-7/ADR
Text: The MCF-7 cell line, the MDR cell line, and the MCF-7/ADR cell line were used. Alamar Blue™ was used to quantitate cell viability.

Q: What does the source list for `COc1cc([C@@H]2c3cc4c(cc3[C@@H](O[C@@H]3O[C@@H]5CO[C@@H](C)O[C@H]5[C@H](O)[C@H]3O)[C@H]3COC(=O)[C@H]23)OCO4)cc(OC)c1O` [etoposide]?
A: inhibition of Topo IIα decatenation [1]: partial inhibition; shift in potency, resistant line MCF-7/ADR versus parent line MCF-7 [2]: 100 fold
